Data taken from patent US6413979B1, “Substituted 5-(2,2-difluoro-1,3-benzodioxol-5-yl) cyclopentenopyridine derivative” (Banyu Pharmaceutical Co., Ltd., priority 1998, dated 2002).

The chains behind the UniProt entries cited, without tags or fusion partners. Residues count along the entry.
UniProt P25101, 21-427 limits assumed: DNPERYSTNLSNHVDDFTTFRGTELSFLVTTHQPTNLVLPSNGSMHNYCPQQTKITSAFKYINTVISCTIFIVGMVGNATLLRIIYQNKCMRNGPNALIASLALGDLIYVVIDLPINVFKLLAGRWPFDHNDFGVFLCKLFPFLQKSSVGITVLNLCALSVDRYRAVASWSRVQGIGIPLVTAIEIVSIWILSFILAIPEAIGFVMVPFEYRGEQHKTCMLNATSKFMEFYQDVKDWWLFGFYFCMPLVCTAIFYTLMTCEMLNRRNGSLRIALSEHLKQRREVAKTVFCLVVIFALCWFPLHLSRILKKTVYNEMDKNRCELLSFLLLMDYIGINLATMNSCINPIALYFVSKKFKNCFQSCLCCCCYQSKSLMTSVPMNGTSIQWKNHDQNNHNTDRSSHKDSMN
UniProt P24530, 27-442 limits assumed: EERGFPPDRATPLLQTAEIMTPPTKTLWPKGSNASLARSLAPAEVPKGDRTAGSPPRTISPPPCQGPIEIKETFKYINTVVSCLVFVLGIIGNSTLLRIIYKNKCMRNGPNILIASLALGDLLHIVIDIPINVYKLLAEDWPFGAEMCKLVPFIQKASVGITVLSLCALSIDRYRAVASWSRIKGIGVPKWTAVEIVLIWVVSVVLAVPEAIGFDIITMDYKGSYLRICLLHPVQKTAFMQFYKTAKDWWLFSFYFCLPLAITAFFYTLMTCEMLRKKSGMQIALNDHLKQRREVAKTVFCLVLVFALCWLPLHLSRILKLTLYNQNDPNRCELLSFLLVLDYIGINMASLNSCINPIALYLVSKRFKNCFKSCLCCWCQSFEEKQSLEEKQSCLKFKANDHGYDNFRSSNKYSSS

Columns and labels:
[1] = biological target: ETA receptor (Homo sapiens, UniProt P25101); assay: Endothelin binding inhibition test on human endothelin receptors ([125I]endothelin-1), ETA
Description: (§1) Endothelin Binding Inhibition Test on Human Endothelin Recepters
(§2) The human neuroblastoma SK-N-MC cells or the human Giradi heart cells, purchased from Dainippon Seiyaku (Japan), were cultured in minimal essential medium supplemented with fetal calf serum. The cells were collected and homogenized in 10 mM MOPS buffer (pH 7.4) containing 154 mM NaCl, 10 mM KCl, 0.8 mM CaCl2 and 20% sucrose at 4° C. using a polytron homogenizer. The homogenate was then centrifuged at 10,000×g for 15 minutes. The supernatant was centrifuged at 100,000×g for 1 hour at 4° C. Then the pellet was washed with 5 mM HEPES/Tris buffer (pH 7.4). […] After the filtration, the filters were washed with buffer B, and the radioactivity on the filters was measured in a γ counter. Nonspecific binding was determined in the presence of 200 nM endothelin-1. […]
(§3) where (A): for nonspecific binding including 200 nM of unlabeled endothelin-1 as the final concentration, (B): for total binding including labeled endothelin-1 without a test compound, and (C): for binding including labeled endothelin-1 with a concentration of a test compound, show the radioactivity.

[2] = biological target: ETB receptor (Homo sapiens, UniProt P24530); assay: Endothelin binding inhibition test on human endothelin receptors ([125I]endothelin-1), ETB; settings: read-out: ETB (IC50, inhibition of [125I]endothelin-1 binding); human cell membranes, 20 pM [125I]endothelin-1, 4 hours incubation
Description: as §1, §2, §3

ETB/ETA ([1]; ratio of IC50 values): ETB/ETA = 24
IC50 ([1]; read-out: ETA (IC50, inhibition of [125I]endothelin-1 binding), human cell membranes, 20 pM [125I]endothelin-1, 4 hours incubation): 42 pM
IC50 [2]: 1000 pM
Structure (SMILES): COc1ccc([C@@H]2c3nc(NC(C)C)ccc3[C@H](c3ccc4c(c3)OCO4)[C@H]2C(=O)O)c(CC(C)C(=O)O)c1 (single isomer, unassigned)
